This is a sample that favours compounds with a hit; in the whole collection about 2.3% have one here.
MC4R barr agon: activates human MC4R beta-arrestin recruitment; U2OS MC4R beta-arrestin complementation, luminescence; percent of melanotan II response, DMSO zero; activation, % at 8.9 µM; 360,000 tested, 0.98% active; AID 540308;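 active = activation above a per-plate cutoff, the mean activation of sample wells on that plate plus 3 SD, cut at about 8% in these data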
ARFGAP1 inhibitor: inhibits rat ARF GTPase activating protein 1 | Q62848 | Arfgap1-stimulated ARF1 GTP hydrolysis, GDP FP detection | inhibition, % at 16.5 µM | 360,000 tested, 0.26% active | AID 651572;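 active = inhibition above a per-plate limit, mean inhibition of low control wells plus 3 SD, cut at about 25% in these data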;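 also: 0% = DMSO wells with enzyme and 100% = wells lacking Arfgap1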
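System: truncated rat Arfgap1 GAP domain / Medium: HEPES-based buffer, pH 7.5 / Also added: N-terminally truncated human ARF1-GTP substrate / Incubation: enzyme reaction 120 min at 25 °C after 20 min preincubation / Measured by: FP of antibody-bound GDP Alexa 633 tracer, ex 620/em 688 nm / Replicates: singlicate, each compound tested once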
ASAP1 inh: ASAP1 ArfGAP inhibition. 360,000 tested, 0.19% active. ASAP1-stimulated ARF1 GTP hydrolysis, GDP FP detection. Q9ULH1. inhibition, % at 16.5 µM. AID 624377; in the data active = inhibition above about 25%;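 also: 0% = vehicle with enzyme and substrate and 100% = no enzyme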
UUG fidelity: alters start codon recognition fidelity in yeast | S. cerevisiae UUG-firefly luciferase reporter, luminescence/redox ratio | activity score, % at 18.7 µM | 350,000 compounds, 0.13% hits | AID 602363;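 active = replicate mean at a twofold rise or more, about +100% in these data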;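 note: firefly luciferase made from a UUG start codon reports start codon fidelity; reporter light over untreated wells divided by growth signal over untreated wells; some hits fall short of that in this replicate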
NRP1-CendR mod: modulators of CendR peptide binding to human neuropilin-1; O14786; FAM-RPARPAR peptide binding to NRP-1, fluorescence polarization; inhibition, % at 25 µM; 360,000 tested, 0.85% active; AID 602438;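 active = inhibition or corrected inhibition above about 18%, plus a signal ratio from 0.5 to 1.5, limit read from the data, passing the limit was not always enough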
MC4R antag cAMP: blocks human MC4R cAMP signaling; P32245; MC4R-expressing cells, MTII-stimulated cAMP, LANCE TR-FRET; inhibition, % at 6.5 µM; 360,000 tested, 0.48% active; AID 540295;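 active = inhibition above its plate's cutoff, the mean of tested wells on that plate plus 3 SD, cut at about 29% in these data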;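 also: 0% = Melanotan II alone and 100% = Melanotan II plus saturating MCL0020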
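System: U2OS cells stably expressing human melanocortin 4 receptor (MC4R). Reagent: Melanotan II challenge after compound preincubation. Doses: 6.5 µM. Times: 30-min compound, 1-h challenge, 1-h detection, room temperature. Measured by: TR-FRET with Eu-cAMP and labeled anti-cAMP, 671 nm. Replicates: singlicate.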
U2OS cAMP counter: U2OS forskolin cAMP inhibition counter-screen; shares compounds with MC4R antag cAMP; parental U2OS, LANCE TR-FRET; inhibition, % at 6.5 µM; 1,600 tested, 26% active; AID 602193;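 active = mean inhibition over triplicates above the low-control well mean plus 3 SD, set per campaign, cut at about 13% in these data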;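 also: signal is single emission at 671 nm which falls as cellular cAMP rises; 0% = forskolin-stimulated wells and 100% = buffer without forskolin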
MC4R cAMP antag: human MC4R cAMP antagonism confirmation. 1,600 tested, 27% active. shares compounds with MC4R antag cAMP. MC4R-expressing cells, MTII-stimulated cAMP, TR-FRET. AID 602195. inhibition, % at 6.5 µM; in the data active = inhibition above about 29%;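 also: 0% = agonist stimulated wells alone and 100% = agonist stimulated wells plus saturating reference antagonist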
Numbers without * were called inactive; . = no result.

Assay codes – A = MC4R barr agon; B = ARFGAP1 inhibitor; C = ASAP1 inh; D = UUG fidelity; E = NRP1-CendR mod; F = MC4R antag cAMP; G = U2OS cAMP counter; H = MC4R cAMP antag
> CN1C(=O)CC(C(=O)Nc2ccccc2F)SC1=Nc1ccc2c(c1)OCO2 (centres undefined)
  A: 1.4; B: -3.9; C: 2.6; D: .; E: 0.5; F: 32.5*; G: 2.2; H: -0.9
> CCOC(=O)C1CCCN(S(=O)(=O)c2cnc(Cl)c(Br)c2)C1 (centres undefined)
  A: -1.7; B: 1.0; C: -1.4; D: -19.7; E: -1.4; F: 52.4*; G: 14.8*; H: 37.6*
> CCOC(=O)C1CCCN(S(=O)(=O)c2ccc(S(=O)(=O)N3CCCC3)cc2)C1 (centres undefined)
  A: -0.8; B: -0.6; C: 4.1; D: 0.3; E: -3.4; F: 3.6; G: .; H: .
> COc1cc(CN(C)C)cc(C=O)c1O
  A: 2.4; B: .; C: .; D: .; E: 0.2; F: 1.6; G: .; H: .
> COc1cc(N=Nc2ccc(Br)cc2)cc(C=O)c1O
  A: -2.1; B: 1.9; C: 8.3; D: -25.8; E: -15.5; F: 34.0*; G: -4.9; H: -4.5
> O=C(c1ccccc1Cl)N(Cc1ccc(Br)cc1)N1C(=O)CCCC1=O
  A: -0.5; B: 3.8; C: -3.0; D: -9.6; E: 3.9; F: 2.1; G: .; H: .
> O=C(c1ccc([N+](=O)[O-])cc1)N(Cc1ccc(Br)cc1)N1C(=O)CCCC1=O
  A: 9.1*; B: 6.3; C: 3.6; D: -12.5; E: 5.6; F: 43.8*; G: 17.1*; H: 12.0
> CO[C@@H]1CN(C)C(=O)c2cc(NC(C)=O)ccc2OC[C@@H](C)N(Cc2ccc(F)cc2)C[C@H]1C
  A: .; B: .; C: .; D: 2.0; E: .; F: .; G: .; H: .
> C[C@@H]1CN([C@H](C)CO)C(=O)c2cc(NC(=O)Nc3cccc4ccccc34)ccc2O[C@@H](C)CCCCO[C@H]1CN(C)Cc1ccc(C(=O)O)cc1
  A: .; B: .; C: .; D: 8.1; E: .; F: .; G: .; H: .
> CCCCOc1c(Br)cc(/C=C2\N=C(C)OC2=O)cc1OCC
  A: -0.9; B: -2.4; C: -12.3; D: -1.3; E: -3.7; F: 33.3*; G: 0.1; H: -0.1
> CCOc1cc(/C=C2\N=C(C)OC2=O)cc(Cl)c1OCC(=O)OC
  A: -0.7; B: -0.5; C: -0.4; D: -9.0; E: -4.7; F: -0.1; G: .; H: .
> Cc1noc(C)c1NC(=O)N(C)C[C@@H]1Oc2ccc(NC(=O)Nc3ccc(C(F)(F)F)cc3)cc2CC(=O)N([C@@H](C)CO)C[C@@H]1C
  A: .; B: .; C: .; D: 2.9; E: .; F: .; G: .; H: .
> CC1CCN(c2ccccc2NC(=S)NC(=O)c2cccs2)CC1
  A: 1.7; B: 17.4; C: 6.5; D: .; E: 10.8; F: 4.3; G: .; H: .
> CS(=O)(=O)N1CCN(c2ccccc2NC(=S)NC(=O)c2cccs2)CC1
  A: -0.5; B: -7.0; C: 0.2; D: .; E: -3.2; F: 29.5*; G: 0.5; H: 5.8
> CO[C@H]1CN(C)C(=O)c2ccc(NC(=O)C3CCCC3)cc2OC[C@@H](C)N(CC2CC2)C[C@@H]1C
  A: .; B: .; C: .; D: -0.4; E: .; F: .; G: .; H: .

Given with values under each structure: entries from further up
Values run as follows: MC4R barr agon, ARFGAP1 inhibitor, ASAP1 inh, UUG fidelity, NRP1-CendR mod, MC4R antag cAMP, U2OS cAMP counter, MC4R cAMP antag
CCOC(=O)C1CCCN(S(=O)(=O)c2ccc(S(=O)(=O)N3CCCC3)cc2)C1 (centres undefined)
    -0.8, -0.6, 4.1, 0.3, -3.4, 3.6, ., .
COc1cc(CN(C)C)cc(C=O)c1O
    2.4, ., ., ., 0.2, 1.6, ., .
COc1cc(N=Nc2ccc(Br)cc2)cc(C=O)c1O
    -2.1, 1.9, 8.3, -25.8, -15.5, 34.0*, -4.9, -4.5

The list continues:
Assay codes – A = MC4R barr agon; B = ARFGAP1 inhibitor; C = ASAP1 inh; D = UUG fidelity; E = NRP1-CendR mod; F = MC4R antag cAMP; G = U2OS cAMP counter; H = MC4R cAMP antag
> Cc1cccc(Cn2ncc(Cl)c(Cl)c2=O)c1
  A: -2.0; B: -1.2; C: 7.2; D: -2.9; E: 8.1; F: 37.4*; G: 31.7*; H: 49.8*
> Cc1ccc(C(=O)OCn2ncc(Cl)c(Cl)c2=O)cc1
  A: 0.5; B: 4.0; C: -7.5; D: -34.8; E: -1.7; F: -2.4; G: .; H: .
> CO[C@H]1CN(C)C(=O)c2ccc(NS(=O)(=O)CC(F)(F)F)cc2OC[C@H](C)N(CC2CCCCC2)C[C@H]1C
  A: .; B: .; C: .; D: -2.6; E: .; F: .; G: .; H: .
> CCC1C(c2ccccc2)N(C)C(c2ccccc2)CC1(O)c1ccccc1 (centres undefined)
  A: 4.0; B: -0.2; C: 2.0; D: .; E: -1.9; F: 17.8; G: .; H: .
> CC(C)C1C(c2ccccc2)N(C)C(c2ccccc2)CC1(O)c1ccccc1 (centres undefined)
  A: 2.0; B: 2.1; C: 7.9; D: -3.1; E: 5.2; F: 28.5*; G: 2.9; H: 25.5
> CCCC#Cc1ccc2c(c1)O[C@H](CN(C)C(C)=O)[C@H](C)CN([C@@H](C)CO)S2(=O)=O
  A: .; B: .; C: .; D: 5.2; E: .; F: .; G: .; H: .
> Brc1ccc(-c2nn3c(-c4ccco4)nnc3s2)o1
  A: -3.4; B: -2.9; C: 1.6; D: -15.5; E: -37.3; F: 44.5*; G: 26.0*; H: 38.6*
> O=C(O)C1C2CCC(C2)C1C(=O)Nc1cccc([N+](=O)[O-])c1 (centres undefined)
  A: -2.2; B: 2.8; C: 5.7; D: 4.3; E: 18.0; F: 29.0*; G: -7.5; H: -19.9
> O=C(NC(=S)Nc1cccc([N+](=O)[O-])c1)c1ccccc1
  A: -0.1; B: 12.7; C: 14.3; D: -0.2; E: 10.8; F: 32.7*; G: 1.5; H: -8.7
> CCCN(C)C[C@H]1Oc2ncc(-c3cccc(C#N)c3)cc2C(=O)N([C@@H](C)CO)C[C@@H]1C
  A: .; B: .; C: .; D: -17.3; E: .; F: .; G: .; H: .
> Cc1cc(C(=O)Nc2cccc3c2O[C@H](CN(C)S(=O)(=O)c2ccc(Cl)cc2)[C@H](C)CN([C@@H](C)CO)C3=O)n(C)n1
  A: .; B: .; C: .; D: -8.5; E: .; F: .; G: .; H: .
> CCc1nc2ccc(C(=O)NCc3ccc4c(c3)OCO4)cn2c1N(CC)CCN(C)C
  A: -0.5; B: -0.9; C: -3.0; D: -18.0; E: 4.8; F: 21.3; G: .; H: .
> CCc1nc2ccc(C(=O)NCc3ccc4c(c3)OCO4)cn2c1N(CCC(C)C)CCN(C)C
  A: -0.9; B: -3.8; C: -1.5; D: -6.8; E: -1.4; F: 31.1*; G: 0.8; H: 46.6*
> Cc1cccc(-c2ccc([C@H]3[C@H](CO)N4CCCCN(Cc5cccnc5)C[C@@H]34)cc2)c1
  A: .; B: .; C: .; D: -9.4; E: .; F: .; G: .; H: .
> Nc1c(C(=O)Nc2ccccc2F)sc2nc(Cc3ccccc3)cc(C(F)(F)F)c12
  A: 7.0; B: -1.8; C: -1.9; D: -21.9; E: 132.5; F: 111.3*; G: 4.6; H: -0.9
> C[C@@H]1CN([C@@H](C)CO)C(=O)c2cccc(NC(=O)C3CCOCC3)c2O[C@@H]1CN(C)C(=O)Nc1cccc2ccccc12
  A: .; B: .; C: .; D: -1.2; E: .; F: .; G: .; H: .
> C[C@@H]1CN([C@H](C)CO)C(=O)c2cc(C#CCN(C)C)cnc2O[C@@H]1CN(C)Cc1ccccn1
  A: .; B: .; C: .; D: -17.8; E: .; F: .; G: .; H: .
> Cc1coc2cc3oc(=O)c(CC(=O)N(C)CC(=O)O)c(C)c3cc12
  A: 0.8; B: -8.2; C: -4.9; D: -0.2; E: -4.8; F: 29.3*; G: 18.5*; H: 0.5
> Cc1coc2cc3oc(=O)c(Cc4ccccc4)c(C)c3cc12
  A: -1.2; B: -3.1; C: -4.2; D: .; E: -1.3; F: 1.0; G: .; H: .
> COc1ccc(-c2cnc3c(c2)C(=O)N([C@H](C)CO)C[C@H](C)[C@H](CN(C)S(=O)(=O)c2cccc(F)c2)O3)cc1
  A: .; B: .; C: .; D: 10.7; E: .; F: .; G: .; H: .
> CCCCn1c(N)c(N(CC(C)C)C(=O)CCCc2nc3ccccc3s2)c(=O)[nH]c1=O
  A: -2.8; B: 0.9; C: 0.8; D: .; E: 0.0; F: 0.1; G: .; H: .
> CCCCn1c(N)c(N(CCC(C)C)C(=O)CCCc2nc3ccccc3s2)c(=O)[nH]c1=O
  A: -1.9; B: 11.7; C: -1.8; D: -5.5; E: -6.3; F: 29.9*; G: 4.5; H: 15.4
> NS(=O)(=O)c1cccc(NC(=O)c2cncc(Br)c2)c1
  A: -2.3; B: -1.6; C: 12.3; D: -18.0; E: -1.4; F: -9.5; G: .; H: .
> NS(=O)(=O)c1cccc(NC(=O)c2cccc3c(Br)cccc23)c1
  A: 0.6; B: 6.7; C: -8.9; D: -15.4; E: 2.6; F: 42.7*; G: 3.2; H: 7.3
> CC1(C)CC(=O)C2=C(C1)OC1=C(C(=O)CC(C)(C)C1)C2c1ccc(O)cc1O
  A: -3.6; B: -15.5; C: 5.1; D: .; E: -0.7; F: 74.4*; G: 50.1*; H: 52.5*
> Cc1ccc(CNC(=O)COC(=O)Cn2nc(C)c([N+](=O)[O-])c2C)cc1
  A: -1.2; B: -1.4; C: 4.7; D: -16.9; E: 0.9; F: 45.7*; G: 11.3; H: 31.1*
